Drawing on ChEMBL document CHEMBL3272190, “(2-exo-3-endo)-2-Aryltropane-3-carboxylic esters, a new class of narcotic antagonists” (J Med Chem, 1978), this text covers ED50 for one compound.

A word on the ED50: it is the dose that gives a 50% effect, or the effect in half of the subjects.

The test deals with Mus musculus. Kind of test: Antiwrithing activity in sc dosed mouse assessed as prevention of acetylcholine-induced abdominal constriction response. To be noted: Abdomen. For orientation: In writhing tests, fewer writhes than in controls are read as antinociception.

Consider `C=CCN1CC[C@]23c4c5ccc(O)c4O[C@H]2[C@@H](O)C=C[C@H]3[C@H]1C5` [NALORPHINE], for which the ED50 turned out to be 2.8 mg/kg.
